Assay results from PubChem BioAssay AID1285 (Columbia University Molecular Screening Center, 2008).
The entries are a selection whose mix differs from that of the whole data set. Some results for these compounds are left out of this collection, so the calls shown say nothing about other tests. Calls of active or inactive are those of the source.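 How the source made its calls: active means inhibition above a set limit, derived from the sample mean plus 3 SD (cut at about 45% in these data); inconclusive means one replicate passes the limit while the other fails; inactive means the rest.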

Assay: inhibitors of APP translation via 5'UTR reporter, primary screen, APP 5'UTR luciferase, SH-SY5Y cells (AID 1285)
Settings: SH-SY5Y APP 5'UTR-luciferase reporter, luminescence; at 2 µM; hits give high values

Row | SMILES | inhibition
1 | CN(C)c1cccc(C(=O)NCC2(N(C)C)CCCCC2)c1 | inactive: -35.3%
2 | O=C(OC1CN2CCC1CC2)C(CO)(c1ccccc1)c1ccccc1 (centres undefined) | inactive: -11.9%
3 | COc1cccc(C(=O)NCC2(N3CCCCC3)CCCCC2)c1 | inactive: -24.5%
4 | CCN1CCCC(OC(=O)C2(O)c3ccccc3C=Cc3ccccc32)C1 (centres undefined) | inactive: 4.8%
5 | C=CCN1CCN(CCOC(=O)C(O)(c2ccccc2)c2ccccc2)CC1 | inactive: -4.7%
6 | CN(C)C1CCCC1OC(=O)C(O)(c1ccccc1)c1ccccc1 (centres undefined) | inactive: 15.9%
7 | Cc1ccccc1C(=O)NCC1(N2CCCCC2)CCCCC1 | inactive: -2.9%
8 | CC(C)N1C(=O)CC2(CCN(CCOC(=O)C(O)(c3ccccc3)c3ccccc3)CC2)C1=O | inactive: -3.3%
9 | O=C(NCC1(N2CCCCC2)CCCCC1)c1cc([N+](=O)[O-])ccc1Cl | inactive: -13.2%
